Literature values as cited in patent publication US20070248547A1, “CASCADE MACROMOLECULAR CONTRAST AGENTS FOR MEDICAL IMAGING” (THE REGENTS OF THE UNIVERSITY OF CALIFORNIA, priority 2006, published 2007).

Conditions: in vivo, 864 h

Question: Which “remained in the body” value does the source give for Albumin-(Gd-DTPA) here?
Answer: Its value is 13%.
